# Test results reported in PubChem BioAssay AID2528 (National Center for Advancing Translational Sciences (NCATS), 2010).
# Amino acid sequences for entries named in this document (tags omitted).
# UniProt P54132, whole entry: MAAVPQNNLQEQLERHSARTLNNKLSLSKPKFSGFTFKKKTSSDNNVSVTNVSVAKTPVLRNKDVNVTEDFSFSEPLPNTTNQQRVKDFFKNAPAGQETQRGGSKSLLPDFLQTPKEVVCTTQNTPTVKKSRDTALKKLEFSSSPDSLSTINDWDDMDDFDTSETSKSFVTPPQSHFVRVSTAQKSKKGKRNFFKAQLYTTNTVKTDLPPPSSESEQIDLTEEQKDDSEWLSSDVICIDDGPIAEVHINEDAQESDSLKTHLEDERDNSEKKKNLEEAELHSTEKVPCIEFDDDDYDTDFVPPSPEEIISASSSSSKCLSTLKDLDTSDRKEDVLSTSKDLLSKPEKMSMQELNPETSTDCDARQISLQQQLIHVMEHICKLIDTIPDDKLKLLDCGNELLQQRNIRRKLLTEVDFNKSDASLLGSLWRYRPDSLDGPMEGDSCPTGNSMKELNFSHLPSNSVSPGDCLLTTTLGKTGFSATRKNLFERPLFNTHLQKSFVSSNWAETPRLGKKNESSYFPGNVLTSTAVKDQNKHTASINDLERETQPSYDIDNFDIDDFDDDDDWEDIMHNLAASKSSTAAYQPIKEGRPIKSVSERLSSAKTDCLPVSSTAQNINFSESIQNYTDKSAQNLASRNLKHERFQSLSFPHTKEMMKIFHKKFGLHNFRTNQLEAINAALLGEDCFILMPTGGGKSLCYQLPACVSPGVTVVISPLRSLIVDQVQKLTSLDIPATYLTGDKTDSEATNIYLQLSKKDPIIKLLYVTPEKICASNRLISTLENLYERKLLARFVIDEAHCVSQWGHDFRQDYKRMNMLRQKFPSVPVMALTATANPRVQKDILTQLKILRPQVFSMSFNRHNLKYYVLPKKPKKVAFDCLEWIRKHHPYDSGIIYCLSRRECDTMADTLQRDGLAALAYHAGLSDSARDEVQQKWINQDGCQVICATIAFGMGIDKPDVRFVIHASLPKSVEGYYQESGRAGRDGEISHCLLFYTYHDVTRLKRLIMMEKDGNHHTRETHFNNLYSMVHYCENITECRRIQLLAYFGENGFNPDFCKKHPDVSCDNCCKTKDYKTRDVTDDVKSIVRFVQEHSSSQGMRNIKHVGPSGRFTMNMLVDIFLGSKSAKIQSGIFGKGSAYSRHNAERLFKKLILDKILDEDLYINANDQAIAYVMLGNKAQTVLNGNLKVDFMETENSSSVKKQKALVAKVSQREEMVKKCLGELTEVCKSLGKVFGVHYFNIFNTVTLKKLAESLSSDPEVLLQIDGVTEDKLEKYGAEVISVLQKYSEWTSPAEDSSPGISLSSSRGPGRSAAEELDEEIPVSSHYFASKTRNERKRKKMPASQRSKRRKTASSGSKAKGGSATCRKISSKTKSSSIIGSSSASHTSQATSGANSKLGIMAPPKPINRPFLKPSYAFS
# Values joined by “and” are separate entries in the source; they are usually repeats but may differ in a detail not shown here. Equal values may be shown once. The list shows a part of the results, in another mix than the full data. Active and inactive are the calls of the source. Calls follow the shape of the dose curve; as a rule, active = well fitted inhibition curve with a large enough effect; inconclusive = small, poorly fitted or top-dose-only effect; inactive = flat fitted curve, though single readings scatter.
# Biological target: RecQ-like DNA helicase BLM (Homo sapiens) (UniProt P54132)
# Assay: qHTS Assay for Inhibitors of Bloom's syndrome helicase (BLM);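 also: plate controls were vehicle for no effect and no enzyme for full effect; nearly all actives have a fitted effect of over 35% in size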
# Conditions: recombinant BLM DNA unwinding, fluorescence dequenching; at 56.1 µM (top of the series)
row,Structure (SMILES),"activity change, negative = inhibition"
1,CCC(=O)N(c1ccccc1)C1CCN(CCc2ccccc2)CC1,inactive: -4.82%
2,CN(CCCl)CCCl,inactive: -6.65% and inactive: -6.81%
